# Test results from US6576648B2, “Compound with growth hormone releasing properties” (Novo Nordisk A/S, priority 1999, dated 2003).
# Key:
# [1] = system: Carboxypeptidase mix: carboxypeptidase Y and B; assay: Metabolic stability in carboxypeptidase mix (ESMS, SIM of molecular ion); settings: carboxypeptidase Y and B 0.025 mg/ml, 50 mM ammoniumacetate pH 4.5, 37° C., 24 h, decrease in SIM signal
# [2] = system: Pancreatic enzyme mix: trypsin, chymotrypsin and elastase; assay: Metabolic stability in pancreatic enzyme mix (ESMS, SIM of molecular ion); settings: chymotrypsin and elastase 0.025 mg/ml, 100 mM ammoniumbicarbonate pH 8.0, 37° C., 24 h, decrease in SIM signal
smiles,measurement,setting,value
CSCC[C@H](NC(=O)[C@H](CC(C)C)NC(=O)[C@H](Cc1c[nH]c2ccccc12)NC(=O)[C@H](CCC(N)=O)NC(=O)[C@@H](NC(=O)[C@H](Cc1ccccc1)NC(=O)[C@H](CC(=O)O)NC(=O)[C@H](CCC(N)=O)NC(=O)[C@H](C)NC(=O)[C@H](CCCN=C(N)N)NC(=O)[C@H](CCCN=C(N)N)NC(=O)[C@H](CO)NC(=O)[C@H](CC(=O)O)NC(=O)[C@H](CC(C)C)NC(=O)[C@H](Cc1ccc(O)cc1)NC(=O)[C@H](CCCCN)NC(=O)[C@H](CO)NC(=O)[C@H](Cc1ccc(O)cc1)NC(=O)[C@H](CC(=O)O)NC(=O)[C@H](CO)NC(=O)[C@@H](NC(=O)[C@H](Cc1ccccc1)NC(=O)[C@@H](NC(=O)CNC(=O)[C@H](CCC(N)=O)NC(=O)[C@H](CO)NC(=O)[C@@H](N)Cc1c[nH]cn1)[C@@H](C)O)[C@@H](C)O)C(C)C)C(=O)N[C@@H](CC(N)=O)C(=O)N[C@H](C(=O)O)[C@@H](C)O [Glucagon],Stability in Carboxypeptidase mix,[1],− (Unstable (more than 20% decrease in SIM signal after 24 h in degradation solution))
same,Stability in Pan. Enzyme mix,[2],− (Unstable (more than 20% decrease in SIM signal after 24 h in degradation solution))
